These are literature values, as cited in patent US10946075B1 (priority 2014, dated 2021).

As a reminder, the LD50 is the dose expected to kill half of the subjects tested.

The conditions of series [1]: US EPA.
Another series has as its system rats. The note with it: rat, po.

This is a selection: effects in other tests are not listed, and their absence says nothing.

For Ammonium Perchlorate, in series [1], the “LOEL (Lowest Observed Effect Level)” value was 0.02 mg/kg/day and the “NOEL (No Observed Effects Level)” value is recorded as 0.007 mg/kg/day.

ferric hexacyanoferrate (II): the median lethal dose (LD50) in the series on rats is given as 1000 mg/kg.
